Test system: p-AMPK protein
Experiment: Activation of p-AMPK protein (Western blot)
Conditions: HEK293T, 0.5 mM and 2 mM, 6 hrs

## Metformin Citrate
  Activation of p-AMPK protein (expression level, Western blot): more pronounced effect on p-AMPK activation

— US11497722B2, “Use of metformin salt in the treatment of cerebral infarction” (dated 2022)
